# Assay results reported in paper PMC4964404, “TSPO PIGA Ligands Promote Neurosteroidogenesis and Human Astrocyte Well-Being” (International Journal of Molecular Sciences, 2016).
# Chains of the proteins cited; added tags and fusions are not shown. Residues count along the entry.
# UniProt P30536, 2-169: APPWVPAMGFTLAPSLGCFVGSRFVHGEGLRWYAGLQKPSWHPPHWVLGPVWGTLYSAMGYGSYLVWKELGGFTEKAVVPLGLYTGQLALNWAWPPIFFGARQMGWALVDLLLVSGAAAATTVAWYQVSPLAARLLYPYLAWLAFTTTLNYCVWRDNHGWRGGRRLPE
# Molecular target: T1, Translocator protein 18 kDa (TSPO) (Homo sapiens, UniProt P30536)
# T1 construct: native TSPO in membranes of normal human astrocytes
# Experiment: [3H]PK11195 saturation radioligand binding
smiles,measurement,value
"CCC(C)N(C)C(=O)c1cc2ccccc2c(-c2ccccc2Cl)n1 (stereo not shown) [PK11195, 1-(2-chlorophenyl)-N-methyl-N-(1-methylpropyl)-3-isoquinoline carboxamide]",Kd,2.8 nM
